# Tests used:
# Rattus norvegicus [1] = organism: Rattus norvegicus; assay: Selectivity ratio of IC50 for recombinant rat GluN2B receptor to IC50 for recombinant rat GluN2D receptor
# Method in brief: (§1)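 Rat GluN1 co-expressed with GluN2A, GluN2B or GluN2D in Xenopus oocytes. Two-electrode voltage clamp at −40 mV in 90 NaCl, 1 KCl, 0.5 BaCl2, 0.005 EDTA, 10 HEPES (mM), pH 7.4, 23 °C; final DMSO 0.1–0.05%. IC50s came from Hill fits to averaged composite concentration-response curves (5–24 oocytes, 2–4 frogs). Ratio is GluN2A or GluN2B IC50 over GluN2D IC50.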
# Rattus norvegicus [2] = organism: Rattus norvegicus; assay: Selectivity ratio of IC50 for recombinant rat GluN2A receptor to IC50 for recombinant rat GluN2D receptor; method in brief: as §1
Ratio IC50 (Rattus norvegicus [1]),Ratio IC50 (Rattus norvegicus [2]),SMILES
7,,O=C(O)CCC(=O)N1N=C(c2c(-c3ccccc3)c3cc(Cl)ccc3[nH]c2=O)CC1c1ccc(Br)cc1 (stereo not drawn)
79,34,O=C(O)CCC(=O)N1N=C(c2c(-c3ccc(Br)cc3)c3ccccc3[nH]c2=O)CC1c1ccc(Cl)cc1 (stereo not drawn)

# — ChEMBL document CHEMBL2424574, “Structure-activity relationships and pharmacophore model of a noncompetitive pyrazoline containing class of GluN2C/GluN2D selective antagonists” (J Med Chem, 2013)
